Experimental data from PubChem BioAssay AID504577 (NMMLSC, 2011).
The entries are a selection whose mix differs from that of the whole data set. The source made the active and inactive calls. Cut-off read from the data, not from the text of the source: active = response mostly above about 7.3% (no sharp cut-off); inactive = mostly below about 5.4%.

Test: regulators of yeast V-ATPase proton pumping, primary screen, pHLuorin cytosolic pH fluorescence (AID 504577)
Conditions: S. cerevisiae, at 10 µM, hits give high values

Compound | response
COc1ccccc1CNC(=O)COC(=O)C(O)(c1ccccc1)c1ccccc1 | inactive: 2.97%
CC1(CBr)Cn2c(nc3ccccc3c2=O)S1 (stereo not given) | inactive: -2.05%
CC(C)/C=N\N=C(\N)N[N+](=O)[O-] | inactive: -1.57%
CN(C(=O)Cc1ccc(Cl)c(Cl)c1)[C@@H]1CCCC[C@H]1N1CCCC1 | inactive: -8.73%
CCOP(=O)(Nc1ccc(C)cn1)OCC | inactive: 1.61%
O=P1(Nc2ccccn2)COc2ccccc2OC1 | inactive: -3.93%
CCC1=CC2Cc3nc4ccc(Cl)cc4c(N)c3C(C1)C2 (stereo not given) | inactive: -0.14%
CCOP(=O)(NC(=NC(C)c1ccccc1)NC(C)c1ccccc1)OCC (stereo not given) | inactive: -6.24%
O=P1(N(CCCl)CCCl)NCCC(C(F)(F)F)O1 (stereo not given) | inactive: 2.06%
Clc1n[nH]nc1-c1nn[nH][15n]1 | inactive: 4.14%
CC(C)(C)C(=O)NC(Sc1ncccn1)C(Cl)(Cl)Cl (stereo not given) | inactive: -2.35%
O=P1(Nc2ncccn2)COc2ccccc2OC1 | inactive: -0.42%
Cc1ccc(OCC(=O)OC2CN3CCC2CC3)cc1 (stereo not given) | inactive: -3.37%
O=[As](O)(c1cccs1)c1cccs1 | inactive: -0.19%
O=P1(Nc2ccc(Br)cn2)COc2ccccc2OC1 | inactive: -0.33%
NS(=O)(=O)c1cccc(NC(=O)COC(=O)C(O)(c2ccccc2)c2ccccc2)c1 | inactive: -0.67%
Nc1cccc([As](=O)(O)c2ccccc2)c1 | inactive: -4.12%
Cc1nn(-c2ccccc2)c2c1P(=O)(N1CCOCC1)N(C)C(c1ccccc1)=N2 (stereo not given) | inactive: -0.99%
CC1CCC(C(C)C)C(OP(=O)(Nc2ccccn2)c2ccccc2)C1 (stereo not given) | inactive: 5.45%
Cc1ccc(C(=O)OC2CN3CCC2CC3)cc1 (stereo not given) | inactive: 1.15%
O=C(/C=C/c1ccccc1)OC1CN2CCC1CC2 (stereo not given) | inactive: -1.39%
CCCC1OP(=O)(Nc2ccccc2)OCC1CC (stereo not given) | inactive: -0.81%

Compound | response
CN(C)C1(CNC(=O)c2ccc(S(C)(=O)=O)cc2)CCCCC1 | inactive: 6.48%
NC(=O)Nc1ccc([As](=O)(O)O)cc1 | inactive: 5.09%
O=[N+]([O-])c1ccc2c(c1)nnn2O | inactive: -2.71%
CN(C)C(=O)c1cc([N+](=O)[O-])cc2c1-c1c(cc([N+](=O)[O-])cc1[N+](=O)[O-])C2=O | inactive: 3.42%
CN(C(=O)Cc1ccc(Cl)c(Cl)c1)[C@H]1CC[C@@]2(CCCO2)C[C@@H]1N1CCCC1 | inactive: -0.62%
N#CCCN(C(=O)COC(=O)C(O)(c1ccccc1)c1ccccc1)c1ccc(F)cc1 | inactive: 0.57%
CCOP1(=S)c2c(C)nn(CCC#N)c2N=C(c2ccc(F)cc2)N1C (stereo not given) | inactive: -1.29%
CN(C(=O)Cc1ccccc1)[C@@H]1CC[C@]2(CCCO2)C[C@H]1N1CCCC1 | inactive: 0.95%
CS(=O)(=O)c1cc([N+](=O)[O-])c2no[n+]([O-])c2c1 | inactive: -1.89%
CCOP1(=S)c2c(C)nn(CCC#N)c2N=C(c2ccccc2F)N1C (stereo not given) | inactive: -3.77%
O=P(Nc1nccs1)(Oc1ccccc1)Oc1ccccc1 | inactive: 0.15%
O=P(Nc1nccs1)(c1ccccc1)c1nc2ccccc2s1 (stereo not given) | inactive: 2.82%
Nc1ccccc1[As](=O)(O)c1ccccc1 | inactive: 2.23%
O=C(O)COc1ccc([As](=O)(O)O)cc1[N+](=O)[O-] | inactive: -1.47%
CCCOP(=S)(Nc1nc(N)cc(=O)[nH]1)OCCC | inactive: 1.2%
Cc1ccc(NCCc2c([N+](=O)[O-])cc([N+](=O)[O-])cc2[N+](=O)[O-])cc1 | inactive: -2.14%
Nc1cccc2c([As](=O)(O)O)cccc12 | inactive: -2.18%
COc1cc(C2NCCC3(OCCO3)C2(C)C)cc(OC)c1OC (stereo not given) | inactive: 0.27%
CCOP(=O)(Nc1cccc2ccccc12)OCC | inactive: 0.24%
O=[As](O)(O)c1cccnc1 | inactive: -2.17%
COc1cc(C(=O)NCC2(N3CCOCC3)CCCCC2)cc(Cl)c1OC(C)C | inactive: -2.65%
CS(=O)(=O)c1ccc(Cl)c(NC(=O)COC(=O)C(O)(c2ccccc2)c2ccccc2)c1 | inactive: -3.28%

Compound | response
O=C(OC1CN2CCC1CC2)c1ccc(Cl)cc1 (stereo not given) | inactive: -4.32%
Cc1cccc(OCC(=O)OC2CN3CCC2CC3)c1 (stereo not given) | inactive: -0.93%
O=[As](O)(c1cccc(O)c1)c1cccc(O)c1 | inactive: -1.51%
COc1ccc(N/C(=N/P(=O)(N2CCOCC2)N2CCOCC2)N2CCOCC2)cc1 | inactive: -7.64%
O=[N+]([O-])c1cc(Oc2ccc([N+](=O)[O-])cc2C(F)(F)F)cc([N+](=O)[O-])c1 | inactive: -3.37%
O=C(OC1CN2CCC1CC2)C12CC3CC(CC(C3)C1)C2 (stereo not given) | inactive: 2.23%
Cc1cc(=O)[nH]c(N[N+](=O)[O-])n1 | inactive: 1.14%
Cc1c2c(nc3ccccc13)SC(C(Cl)Cl)C2 (stereo not given) | inactive: 4.62%
COc1ccc2nc(NP(=O)(c3ccccc3)c3ccccc3)sc2c1 | inactive: -1.93%
COc1cc(I)ccc1[As](=O)(O)O | inactive: -0.72%
O=P1(N(CCCl)CCCl)Nc2ccccc2N1 | inactive: 1.67%
O=P1(N(CCCl)CCCl)OCCCN1CCCl (stereo not given) | inactive: -1.24%
COC(=O)C1(C)COP(=O)(N2CCCCCC2)OC1 (stereo not given) | inactive: -1.32%
CC(C)c1ccc(OP(=O)(Nc2ccccn2)Oc2ccccc2F)cc1 (stereo not given) | inactive: 4.63%
ClCCSc1nnc(-c2cccnc2)o1 | inactive: -2.8%
CC(C)NC(=O)NP(=O)(Oc1ccccc1)Oc1ccccc1 | inactive: -1.26%
CCN(CC)C(=S)SC(NC=O)C(Cl)(Cl)Cl (stereo not given) | inactive: 0.4%
O=C(OC1CN2CCC1CC2)c1cccc2[nH]cnc12 (stereo not given) | inactive: 5.82%
O=[N+]([O-])c1cc([N+](=O)[O-])c(-c2ccn[nH]2)s1 | inactive: 5.13%
C[As](=O)(O)c1cccc(C(=O)O)c1 | inactive: -0.21%
O=[As](O)(c1ccc(O)cc1)c1ccccc1O | inactive: 1.07%
